Reference: patent EP2057188B1 (priority 2006, dated 2008)

Legend:
[1] = assay type: in vivo, NIH/Swiss mice; conditions: AUC240
[2] = IVGTT duration of action assay, single SC injection; assay type: in vivo, rat; conditions: compared with 0601GIP3794 (794); @ -120 min

Compound | Basal Glucose Lowering at 80 nmol/Kg [1] | Duration In The Rat IVGTT Assay [2]
CC[C@H](C)[C@H](N)C(=O)N[C@@H](Cc1ccc(O)cc1)C(=O)N[C@H](C)C(=O)N[C@@H](CCC(=O)O)C(=O)NCC(=O)N[C@H](C(=O)N[C@@H](Cc1ccccc1)C(=O)N[C@H](C(=O)N[C@@H](CO)C(=O)N[C@@H](CC(=O)O)C(=O)N[C@@H](Cc1ccc(O)cc1)C(=O)N[C@@H](CO)C(=O)N[C@H](C(=O)N[C@@H](C)C(=O)N[C@@H](CCSC)C(=O)N[C@@H](CC(=O)O)C(=O)N[C@@H](CCCCN)C(=O)N[C@H](C(=O)N[C@@H](Cc1c[nH]cn1)C(=O)N[C@@H](CCC(N)=O)C(=O)N[C@@H](CCC(N)=O)C(=O)N[C@@H](CC(=O)O)C(=O)N[C@@H](Cc1ccccc1)C(=O)N[C@H](C(=O)N[C@@H](CC(N)=O)C(=O)N[C@@H](Cc1c[nH]c2ccccc12)C(=O)N[C@@H](CC(C)C)C(=O)N[C@@H](CC(C)C)C(=O)N[C@@H](C)C(=O)N[C@@H](CCC(N)=O)C(=O)N[C@@H](CCCCN)C(=O)N1CCC[C@H]1C(=O)N[C@@H](CCCCN)C(=O)N[C@@H](CCCCN)C(=O)N[C@H](C(=O)N[C@@H](CCCNC(=N)N)C(=O)N[C@@H](Cc1ccc(O)cc1)C(=O)N[C@@H](CO)C(N)=O)[C@@H](C)CC)C(C)C)[C@@H](C)CC)[C@@H](C)CC)[C@@H](C)CC)[C@@H](C)O [0601 GIP48 01] | -1%, AUC240 | –
CC[C@H](C)[C@H](NC(=O)[C@H](CO)NC(=O)[C@H](Cc1ccc(O)cc1)NC(=O)[C@H](CC(=O)O)NC(=O)[C@H](CO)NC(=O)[C@@H](NC(=O)[C@H](Cc1ccccc1)NC(=O)[C@@H](NC(=O)CNC(=O)[C@H](CCC(=O)O)NC(=O)[C@@H](C)NC(=O)[C@H](Cc1ccc(O)cc1)NC(=O)[C@@H](N)CC(C)C)[C@@H](C)O)[C@@H](C)CC)C(=O)N[C@@H](C)C(=O)N[C@@H](CCSC)C(=O)N[C@@H](CC(=O)O)C(=O)N[C@@H](CCCCN)C(=O)N[C@H](C(=O)N[C@@H](Cc1c[nH]cn1)C(=O)N[C@@H](CCC(N)=O)C(=O)N[C@@H](CCC(N)=O)C(=O)N[C@@H](CC(=O)O)C(=O)N[C@@H](Cc1ccccc1)C(=O)N[C@H](C(=O)N[C@@H](CC(N)=O)C(=O)N[C@@H](Cc1c[nH]c2ccccc12)C(=O)N[C@@H](CC(C)C)C(=O)N[C@@H](CC(C)C)C(=O)N[C@@H](C)C(=O)N[C@@H](CCC(N)=O)C(=O)N[C@@H](CCCCN)C(=O)N1CCC[C@H]1C(=O)N[C@@H](CCCCN)C(=O)N[C@@H](CCCCN)C(=O)N[C@H](C(=O)N[C@@H](CCCNC(=N)N)C(=O)N[C@@H](Cc1ccc(O)cc1)C(=O)N[C@@H](CO)C(N)=O)[C@@H](C)CC)C(C)C)[C@@H](C)CC [0601 GIP47 98] | -8%, AUC240 | < 3794 @ -120 min
